From patent US7915393B2 (Corixa Corporation, priority 2001, dated 2011)

Legend:
[1] = system: mouse B6 class I antigens (D^b or K^b molecules on the surface of RMA-S cells); assay: Peptide binding to C57Bl/6 murine class I MHC using RMA-S cells (flow cytometry); assay type: cell-based; conditions: 9-mer peptides within p117-139
Protocol: Peptide binding to C57BI/6 murine MHC was confirmed using the leukemia cell line RMA-S, as described by Ljunggren et al., Nature 346:476-480, 1990. In brief, RMA-S cells were cultured for 7 hours at 26° C. in complete medium supplemented with 1% FCS. A total of 10^6 RMA-S cells were added into each well of a 24-well plate and incubated either alone or with the designated peptide (25 ug/ml) for 16 hours at 26° C. and additional 3 hours at 37° C. in complete medium. Cells were then washed three times and stained with fluorescein isothiocyanate-conjugated anti D^b or anti-K^b antibody (PharMingen, San Diego, Calif.). Labeled cells were washed twice, resuspended and fixed in 500 ul of PBS with 1% paraformaldehyde and analyzed for fluorescence intensity in a flow cytometer (Becton-Dickinson FACSCALIBUR™). The percentage of increase of D^b or K^b molecules on the surface of the RMA-S cells was measured by increased mean fluorescent intensity of cells incubated with peptide compared with that of cells incubated in medium alone.

[2] = system: targets incubated with WT1 peptides (EL-4) and WT1 positive tumor cells (TRAMP-C, BLK-SV40); assay: CTL from mice immunized with WT1 peptides, chromium release assay; assay type: in vivo, B6 mice
Protocol: Mice were immunized with the peptides capable of binding to murine class I MHC. Following immunization, spleen cells were stimulated in vitro and tested for the ability to lyse targets incubated with WT1 peptides. CTL were evaluated with a standard chromium release assay (Chen et al., Cancer Res. 54:1065-1070, 1994). 10^6 target cells were incubated at 37° C. with 150 μCi of sodium ^51Cr for 90 minutes, in the presence or absence of specific peptides. Cells were washed three times and resuspended in RPMI with 5% fetal bovine serum. For the assay, 10^4 51Cr-labeled target cells were incubated with different concentrations of effector cells in a final volume of 200 μl in U-bottomed 96-well plates. Supernatants were removed after 4 to 7 hours at 37° C., and the percentage specific lysis was determined by the formula: % specific lysis=100×(experimental release−spontaneous release)/(maximum release−spontaneous release).
P117-139, a peptide with motifs appropriate for binding to class I and class II MHC, was identified as described above using TSITES and BIMAS HLA peptide binding prediction analyses. Mice were immunized as described in Example 3. Following immunization, spleen cells were stimulated in vitro and tested for the ability to lyse targets incubated with WT1 peptides, as well as WT1 positive and negative tumor cells. CTL were evaluated with a standard chromium release assay. […]

With RMFPNAPYL the “binding to H-2^b class I molecules” value [1] was “bind to H-2^b class I molecules”, the “lysis of targets incubated with 9-mer peptide by CTL generated by immunization with p117-139” value ([2]; EL-4 pulsed with peptide, E:T 25:1 (FIG. 13A)) was “lysed targets” and the “peptide specific lysis after restimulation of the p117-139 specific CTL line with the 9-mer” value ([2]; FIGS. 13B and 13C) was “demonstrated peptide specific lysis”.

Marks after values point to notes of the source that are not given here.
